Patent US20110319347A1, “ANTIOXIDANT AGENT” (priority 2009, published 2011)

By UniProt entry, the sequences of proteins in these tests, tags left out. Residues count along the entry.
UniProt C7FF04, 1-392 limits assumed: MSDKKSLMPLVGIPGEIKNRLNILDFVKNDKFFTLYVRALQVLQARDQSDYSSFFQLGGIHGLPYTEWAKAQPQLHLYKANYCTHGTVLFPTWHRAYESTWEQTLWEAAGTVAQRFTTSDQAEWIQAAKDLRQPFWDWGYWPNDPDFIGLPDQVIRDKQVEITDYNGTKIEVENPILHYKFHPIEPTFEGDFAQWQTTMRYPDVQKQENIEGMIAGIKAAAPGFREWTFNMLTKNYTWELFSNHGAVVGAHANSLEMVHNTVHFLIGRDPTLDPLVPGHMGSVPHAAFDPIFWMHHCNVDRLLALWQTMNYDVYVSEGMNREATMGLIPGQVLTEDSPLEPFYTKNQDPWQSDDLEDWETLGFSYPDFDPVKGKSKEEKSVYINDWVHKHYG
UniProt G1K3P4, 1-150 partner: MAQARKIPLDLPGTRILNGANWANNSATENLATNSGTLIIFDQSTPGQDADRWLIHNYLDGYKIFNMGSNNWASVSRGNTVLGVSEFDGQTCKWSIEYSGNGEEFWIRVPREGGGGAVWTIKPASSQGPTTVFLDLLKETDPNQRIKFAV

Each compound was assayed against Mushroom tyrosinase (Agaricus bisporus, UniProt C7FF04) (assay: Tyrosinase inhibitory activity with L-DOPA as substrate). Conditions: read-out: IC50 for tyrosinase inhibition, pH 6.8, room temperature, absorbance at 475 nm for 60 seconds.
Assay type: biochemical
N[C@@H](Cn1ccc(=O)c(O)c1)C(=O)N[C@@H](Cc1c[nH]cn1)C(=O)N[C@@H](Cc1c[nH]c2ccccc12)C(=O)O gave a pIC50 of 5.52.
Compound N[C@@H](Cn1ccc(=O)c(O)c1)C(=O)N[C@@H](Cc1c[nH]c2ccccc12)C(=O)N[C@@H](Cc1c[nH]c2ccccc12)C(=O)O has a pIC50 of 4.55.
Work on N[C@@H](Cn1ccc(=O)c(O)c1)C(=O)N[C@@H](Cc1c[nH]cn1)C(=O)N[C@@H](Cc1ccc(O)cc1)C(=O)O yielded a pIC50 of 5.05.

pIC50: −log10 of the molar value.
